Literature values in article PMC6162346, “The MALDI-TOF E2/E3 Ligase Assay as Universal Tool for Drug Discovery in the Ubiquitin Pathway” (Cell Chemical Biology, 2018).

Test system: MDM2-p53 interaction
Settings: read-out: IC50 to displace p53 from MDM2; ref Khoury and Domling, 2012; cited from earlier work

nutlin-3A
IC50: 100 to 300 nM
